The list shows a part of the results, in another mix than the full data. Activity calls are given as the source filed them.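 How the source made its calls: active means percent response vs DMSO below 50%; inconclusive means fewer than 70 events counted for the yeast strain; inactive means the rest.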

The assay is described as follows: compounds altering RPL19A-GFP fluorescence, TOR branch – cell-based, S. cerevisiae, multiplex flow cytometry, MLPCN, primary screen (AID 2025).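 Further: median channel GFP fluorescence of the barcoded RPL19A-GFP strain; ratio of sample median GFP to plate DMSO average so 100% = DMSO; lower means less RPL19A-GFP as with rapamycin TOR inhibition.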 To be noted: S. cerevisiae RPL19A-GFP strain, 3 h, at 10 µM, active compounds read low. In general terms: Flow cytometry measures light scatter and fluorescence of single cells or particles in a stream.
As for `Cc1cccc(OCC(=O)OC2CN3CCC2CC3)c1` (stereo unspecified), the percent response vs DMSO is inactive: 105%. Turning to `O=[As](O)(c1cccc(O)c1)c1cccc(O)c1`, the percent response vs DMSO is inactive: 98.5%. With `O=C(OC1CN2CCC1CC2)c1ccc(Cl)cc1` (stereo unspecified), the percent response vs DMSO is inactive: 89.9%. As for `CS(=O)(=O)c1ccc(Cl)c(NC(=O)COC(=O)C(O)(c2ccccc2)c2ccccc2)c1`, the percent response vs DMSO was inactive: 110%.

On to `O=[As](O)(O)c1cccnc1`, for which the percent response vs DMSO was inactive: 98.4%.

In the case of `COc1cc(C(=O)NCC2(N3CCOCC3)CCCCC2)cc(Cl)c1OC(C)C`, the percent response vs DMSO was inactive: 96.6%. The same measure for `CCOP(=O)(Nc1cccc2ccccc12)OCC`: inactive: 112%; for `COc1cc(C2NCCC3(OCCO3)C2(C)C)cc(OC)c1OC` (stereo unspecified): inactive: 98.8%.

With `Cc1ccc(NCCc2c([N+](=O)[O-])cc([N+](=O)[O-])cc2[N+](=O)[O-])cc1`, the percent response vs DMSO is inactive: 99.7%. The same measure for `Nc1cccc2c([As](=O)(O)O)cccc12`: inactive: 102%; for `CCCOP(=S)(Nc1nc(N)cc(=O)[nH]1)OCCC`: inactive: 97.2%. The same measure for `O=C(O)COc1ccc([As](=O)(O)O)cc1[N+](=O)[O-]`: inactive: 116%; for `Nc1ccccc1[As](=O)(O)c1ccccc1`: inactive: 97.2%; for `O=P(Nc1nccs1)(Oc1ccccc1)Oc1ccccc1`: inactive: 106%. As to `O=P(Nc1nccs1)(c1ccccc1)c1nc2ccccc2s1` (stereo unspecified), the percent response vs DMSO is inactive: 95.4%.

For the compound `CCOP1(=S)c2c(C)nn(CCC#N)c2N=C(c2ccccc2F)N1C` (stereo unspecified), the percent response vs DMSO was inactive: 103%. Consider `CS(=O)(=O)c1cc([N+](=O)[O-])c2no[n+]([O-])c2c1`, for which the percent response vs DMSO is inactive: 92.5%.

In the case of `CCOP1(=S)c2c(C)nn(CCC#N)c2N=C(c2ccc(F)cc2)N1C` (stereo unspecified), the percent response vs DMSO was inactive: 95.5%.

Regarding `CN(C(=O)Cc1ccccc1)[C@@H]1CC[C@]2(CCCO2)C[C@H]1N1CCCC1`, the percent response vs DMSO was inactive: 96.4%. Take `N#CCCN(C(=O)COC(=O)C(O)(c1ccccc1)c1ccccc1)c1ccc(F)cc1`: the percent response vs DMSO was inactive: 98.6%. For `CN(C(=O)Cc1ccc(Cl)c(Cl)c1)[C@H]1CC[C@@]2(CCCO2)C[C@@H]1N1CCCC1`, the percent response vs DMSO is inactive: 104%. As for `O=[N+]([O-])c1ccc2c(c1)nnn2O`, the percent response vs DMSO was inactive: 105%. Regarding `CN(C)C(=O)c1cc([N+](=O)[O-])cc2c1-c1c(cc([N+](=O)[O-])cc1[N+](=O)[O-])C2=O`, the percent response vs DMSO was inactive: 92.5%.

As to `NC(=O)Nc1ccc([As](=O)(O)O)cc1`, the percent response vs DMSO is inactive: 99.3%. Turning to `CN(C)C1(CNC(=O)c2ccc(S(C)(=O)=O)cc2)CCCCC1`, the percent response vs DMSO was inactive: 108%. `O=C(/C=C/c1ccccc1)OC1CN2CCC1CC2` (stereo unspecified): the percent response vs DMSO is inactive: 94%. Consider `Cc1ccc(C(=O)OC2CN3CCC2CC3)cc1` (stereo unspecified), for which the percent response vs DMSO was inactive: 93%.

Take `CC1CCC(C(C)C)C(OP(=O)(Nc2ccccn2)c2ccccc2)C1` (stereo unspecified): the percent response vs DMSO is inactive: 99.7%. As to `Cc1nn(-c2ccccc2)c2c1P(=O)(N1CCOCC1)N(C)C(c1ccccc1)=N2` (stereo unspecified), the percent response vs DMSO was inactive: 99.6%.

Consider `Nc1cccc([As](=O)(O)c2ccccc2)c1`, for which the percent response vs DMSO is inactive: 87%.

Consider `Cc1ccc(OCC(=O)OC2CN3CCC2CC3)cc1` (stereo unspecified), for which the percent response vs DMSO is inactive: 97.1%.

Turning to `O=[As](O)(c1cccs1)c1cccs1`, the percent response vs DMSO was inactive: 96.9%. As to `NS(=O)(=O)c1cccc(NC(=O)COC(=O)C(O)(c2ccccc2)c2ccccc2)c1`, the percent response vs DMSO is inactive: 96.8%.

Take `O=P1(Nc2ccc(Br)cn2)COc2ccccc2OC1`: the percent response vs DMSO was inactive: 97.8%.

Take `O=P1(Nc2ncccn2)COc2ccccc2OC1`: the percent response vs DMSO is inactive: 106%. Turning to `CC(C)(C)C(=O)NC(Sc1ncccn1)C(Cl)(Cl)Cl` (stereo unspecified), the percent response vs DMSO is inactive: 95%. `Clc1n[nH]nc1-c1nn[nH][15n]1`: the percent response vs DMSO was inactive: 101%.

`CCOP(=O)(NC(=NC(C)c1ccccc1)NC(C)c1ccccc1)OCC` (stereo unspecified): the percent response vs DMSO was inactive: 94.6%. As for `CCC1=CC2Cc3nc4ccc(Cl)cc4c(N)c3C(C1)C2` (stereo unspecified), the figure is inactive: 100%. The same measure for `O=P1(Nc2ccccn2)COc2ccccc2OC1`: inactive: 102%; for `CCOP(=O)(Nc1ccc(C)cn1)OCC`: inactive: 104%; for `CN(CCCl)Cc1cc(Cl)c(NC2=NCCN2)c(Cl)c1`: inactive: 103%. The same measure for `CN(C(=O)Cc1ccc(Cl)c(Cl)c1)[C@@H]1CCCC[C@H]1N1CCCC1`: inactive: 96%. As for `CC(C)/C=N\N=C(\N)N[N+](=O)[O-]`, the percent response vs DMSO is inactive: 101%. In the case of `CC1(CBr)Cn2c(nc3ccccc3c2=O)S1` (stereo unspecified), the percent response vs DMSO was inactive: 103%.

With `O=[As](O)(c1ccccc1Br)c1ccccc1Br`, the percent response vs DMSO is inactive: 104%. The same measure for `COc1ccccc1CNC(=O)COC(=O)C(O)(c1ccccc1)c1ccccc1`: inactive: 97.9%; for `O=C(Nc1ccncc1[N+](=O)[O-])c1ccc([N+](=O)[O-])cc1[N+](=O)[O-]`: inactive: 101%; for `O=C(COc1ccccc1)OC1CN2CCC1CC2` (stereo unspecified): inactive: 95.3%.

Consider `COP1(=S)c2c(C)nn(CCC#N)c2N=C(c2ccc(F)cc2)N1C` (stereo unspecified), for which the percent response vs DMSO was inactive: 102%.

For the compound `CCC(C)N(CC(C)C)C(=S)SC(NC(C)=O)C(Cl)(Cl)Cl` (stereo unspecified), the percent response vs DMSO is inactive: 95.8%.

(Values after PubChem BioAssay AID2025 (NMMLSC, 2009).)
